Usually Ki stands for the dissociation constant of the complex between target and ligand, obtained from inhibition or displacement.

Chains of the proteins cited; added tags and fusions are not shown.
UniProt Q05940, whole entry: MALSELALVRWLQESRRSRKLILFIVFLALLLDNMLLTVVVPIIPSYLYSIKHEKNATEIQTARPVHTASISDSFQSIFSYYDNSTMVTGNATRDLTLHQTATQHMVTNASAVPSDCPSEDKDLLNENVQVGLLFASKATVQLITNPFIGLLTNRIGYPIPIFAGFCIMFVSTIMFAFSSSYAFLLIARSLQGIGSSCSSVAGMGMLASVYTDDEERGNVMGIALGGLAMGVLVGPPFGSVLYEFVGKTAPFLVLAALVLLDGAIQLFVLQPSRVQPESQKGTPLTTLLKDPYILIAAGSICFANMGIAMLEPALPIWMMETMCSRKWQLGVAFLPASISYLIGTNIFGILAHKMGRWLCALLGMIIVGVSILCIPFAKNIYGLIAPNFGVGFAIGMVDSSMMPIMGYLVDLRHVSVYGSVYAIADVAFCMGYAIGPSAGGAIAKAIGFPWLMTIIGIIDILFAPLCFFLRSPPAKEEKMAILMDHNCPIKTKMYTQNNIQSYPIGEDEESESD

For the assay, the target named is VMAT2 (human platelet homogenate) (Homo sapiens (Human), UniProt Q05940). The experiment in a line: Human VMAT2 Ki, slightly modified competition binding procedure (Table 11).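 Further: competition binding with 90 min incubation at 25 °C, after which filter-retained radioligand was measured by scintillation counting.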 The note with it: read-out: Ki nM, 10 nM 3H-dihydrotetrabenazine.

For the compound `[2H]C([2H])([2H])OC[C@@H]1C[C@@H]2c3cc(OC)c(OC)cc3CCN2C[C@H]1CC(C)C`, the Ki is less than 10 nM.
